## Apparent affinities of Ab-95 variants for a coronavirus HR2 peptide

Source: Engelhart et al. 2022 (doi:10.1038/s41597-022-01779-4), MIT Lincoln Laboratory and A-Alpha Bio; data file from the FLAb repository.

Antigen: PDVDLGDISGINAS, a 14-residue peptide of the SARS-CoV-2 spike HR2 region.

Parent: Ab-95, a human scFv built as VH, a 15-residue (Gly4Ser)3 linker, VL. Only the CDRs of the light chain vary.
VH: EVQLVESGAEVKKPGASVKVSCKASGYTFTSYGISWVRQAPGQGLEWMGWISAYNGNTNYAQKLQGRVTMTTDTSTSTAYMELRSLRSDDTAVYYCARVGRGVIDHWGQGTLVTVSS
VL: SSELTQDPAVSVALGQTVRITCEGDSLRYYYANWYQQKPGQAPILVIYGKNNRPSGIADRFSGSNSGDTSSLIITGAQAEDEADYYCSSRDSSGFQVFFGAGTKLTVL

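Phage display of a naive human antibody library on the peptide gave the parent. AAYL52 was designed without a model: most single CDR substitutions and a random sample of double and triple ones. AlphaSeq pools MATa yeast showing the antibodies with MATalpha yeast showing the peptide. Binding brings cells together so that they mate, and sequencing counts the barcode pairs among the diploids. Scores were corrected for input abundance and mapped to Kd with protein pairs of known affinity run in the same pool. Mating was done three times.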

Each variant is given by its three light chain CDRs, as the data file delimits them; those of the parent are EGDSLRYYYAN, GKNNRPS, SSRDSSGFQVF. Every variant below is changed at P54 of the VL (sequential numbering). Scale: log10 of Kd in nM, estimated from mating counts; low values are strong binders. A mean of the replicates is given; it leaves out those without a signal. Where no diploid with the target was found in that replicate, the entry reads "ND": below detection, most likely a poor binder, though not proof of it. As a blank, each scFv also met three strains without target: over library AAYL52, 28% of these pairings were detected, typically at 3.91 and seldom below 2.90. Parent in this assay: reference entry 2.31, copy in this library 2.25.

CDR-L1,CDR-L2,CDR-L3,"log10 Kd, replicates","log10 Kd (nM), mean"
EGDSLRYYAAN,GKNNRNS,SSRDSVGFQVF,3.33 / 2.98 / 3.49,3.27
EGDSLRYYYAN,NKNNRAS,SSRDSSGFQVF,2.90 / 2.85 / 3.11,2.95
EGDSLRYYYAQ,GKNNRYS,SSRDSSGFQVI,ND / ND / ND,ND
EGDSLRYYYSN,GKNNRNS,SSRDSSGFQPF,ND / 4.87 / ND,4.87
EGDSLRYYYAN,GKNNLNS,SSRTSSGFQVF,3.74 / 4.25 / 4.61,4.20
EEDSLRYYIAN,GKNNRCS,SSRDSSGFQVF,3.83 / ND / ND,3.83
EGISLRYYYAN,GKNNRYS,SSRDSSGDQVF,3.69 / ND / 3.71,3.70
EGDSLGYYYAN,GDNNRAS,SSRDSSGFQVF,1.38 / 1.35 / 0.79,1.17
EGDSLRYYYAN,EKNNRRS,SSRDNSGFQVF,3.04 / 3.32 / ND,3.18
EGDSLGYYYAN,GKNNRFL,SSRDSSGFQVF,2.82 / 2.76 / 3.86,3.15
EGDSLRYYYAN,GKNNGRS,SSRDESGFQVF,3.21 / 3.87 / ND,3.54
EGDSLRYYYIN,GKNNRMS,SSRDSPGFQVF,3.67 / ND / ND,3.67
EGDSLRYIYAN,GKNNRQS,SSRDSSGFAVF,4.53 / 5.19 / 4.06,4.59
EGDNLRYYYAN,GKNNKYS,SSRDSSGFQVF,3.48 / 4.72 / 4.40,4.20
EGDSLRYYYAN,CKNNHRS,SSRDSSGFQVF,2.74 / 3.00 / 3.96,3.23
EGDSLRYYYAN,GKNSRNS,SHRDSSGFQVF,ND / ND / ND,ND
EGDSLRYYYVN,GKNNRVS,SSRDSYGFQVF,4.67 / ND / ND,4.67
EGDSLRFYYAN,GKNNRVS,SSRDSSGFEVF,2.70 / 2.41 / 2.29,2.47
EGDSLRYYYYN,GKNNCMS,SSRDSSGFQVF,3.99 / ND / ND,3.99
EGDHTRYYYAN,GKNNRRS,SSRDSSGFQVF,4.01 / ND / 4.11,4.06
EGDSLRYYYAN,GKNNRVD,SSRDSSGFNVF,2.03 / 1.90 / 1.33,1.75
EGDSLRYYYAN,GKNLRTS,SSRDSSGFTVF,ND / ND / ND,ND
EGASLRYYYAN,GKNNRAS,SSRDSSGWQVF,2.30 / 2.20 / 3.62,2.70
EGDSLRVYYAN,GKNNRLS,SSRDSSGFQQF,ND / 4.33 / ND,4.33
EADSLRYYYSN,GKNNRIS,SSRDSSGFQVF,ND / ND / 3.71,3.71
EGDSLRYYYAN,GKNNRKS,FSIDSSGFQVF,3.04 / 3.44 / 3.46,3.31
EGDSLRYYYAE,WKNNRSS,SSRDSSGFQVF,ND / ND / ND,ND
EGDSLRYYYAN,GKNNIMS,SSRDSSGFEVF,2.65 / 2.89 / 2.15,2.56
EGDSLRYYYAN,GKNNRES,SSRASSGFQTF,5.26 / 4.27 / ND,4.76
IGDSLRYYYAN,GKNNRNS,SSRDSSGFWVF,ND / ND / ND,ND
EGDSLRYYYAN,GKNNYYS,SGRDSSGFQVF,4.50 / ND / ND,4.50
EGDSLRYYYAN,GKANRQS,SSRDSSHFQVF,ND / ND / ND,ND
EGDSLRYYMAN,GKNNRSS,VSRDSSGFQVF,4.26 / 3.83 / ND,4.04
WGDSLRYYYAG,GKNNRWS,SSRDSSGFQVF,3.66 / 4.20 / ND,3.93
EGDSLRYYYAN,GKNIRQS,SSRDSSGFQSF,2.25 / 2.30 / 2.56,2.37
EGDQLRYYYAN,GKNNRVS,WSRDSSGFQVF,ND / ND / ND,ND
EGDSLRYYPAN,GKKNRLS,SSRDSSGFQVF,3.39 / 2.44 / 3.78,3.20
EGDSLRMYYAN,GKNNRNS,SSRDSSGFQLF,ND / ND / ND,ND
EGDSLRYYYAN,PKNNRVS,SSRRSSGFQVF,4.00 / 3.46 / ND,3.73
EGDSGLYYYAN,GKNNRTS,SSRDSSGFQVF,2.67 / ND / ND,2.67
EGDSLRYTYAN,GKNNRVS,SSRDSSGFQTF,2.13 / 2.21 / 1.72,2.02
EVDSLRYYYAN,GKNNRSS,RSRDSSGFQVF,ND / ND / 3.13,3.13
EGDSLRYYYAN,GKNMRQS,SSRDDSGFQVF,2.98 / 3.12 / 3.25,3.12
EGDSLRYYYAN,GKNNRMK,SSRDSSLFQVF,3.27 / 4.77 / 4.28,4.11
EGDSLRYYYAN,GKNNRDS,SSRDSSESQVF,ND / ND / ND,ND
EKDSLRYYYAN,GKNNRGS,SSRYSSGFQVF,ND / ND / ND,ND
EGDSLRYYHAN,QKNNRNS,SSRDSSGFQVF,2.69 / 2.65 / 2.58,2.64

Extract of 6 entries:

CDR-L1,CDR-L2,CDR-L3,"log10 Kd, replicates","log10 Kd (nM), mean"
EGDSLRYYHAN,QKNNRNS,SSRDSSGFQVF,2.69 / 2.65 / 2.58,2.64
EGDSLRYTYAN,GKNNRVS,SSRDSSGFQTF,2.13 / 2.21 / 1.72,2.02
EVDSLRYYYAN,GKNNRSS,RSRDSSGFQVF,ND / ND / 3.13,3.13
EGDSLRYYYAN,EKNNRRS,SSRDNSGFQVF,3.04 / 3.32 / ND,3.18
EGDSLRYYYAN,GKNSRNS,SHRDSSGFQVF,ND / ND / ND,ND
EGDSLRYYYIN,GKNNRMS,SSRDSPGFQVF,3.67 / ND / ND,3.67